Test results: PMC7579840 (Journal of medicinal chemistry, 2019)

Key:
Type in all cases: cell-based
MCF10A cells = test: Cell viability assay, MCF10A; details: MCF10A vs MCF7 (Figure S4)
[1] = system: STAT3-Tyr705 phosphorylation in 786-O cells; test: STAT3 activation, Western Blot of STAT3-Tyr705 phosphorylation; details: Homo sapiens, 786-0, read-out: EC50, inhibition of STAT3 activation
[2] = system: Akt1 (Ser129) phosphorylation in 786-O cells; test: CK2 inhibition in cells, Western Blot of Phospho-Akt1; details: Homo sapiens, 786-0, 24 h, read-out: IC50 cellular CK2
786-O cells = test: Cell viability assay; details: Homo sapiens, 786-0

O=C(O)c1ccc2c(c1)nc(Nc1cccc(Cl)c1)c1ccncc12 [CX-4945, 5-(3-chlorophenylamino)benzo[c][2,6]naphthyridine-8-carboxylic acid]
times stronger cell growth inhibition of MCF10A than of MCF7 (MCF10A cells): 5 times
EC50 [1]: 5.3 µM
IC50 [2]: ~1 µM
GI50 (786-O cells): 6 µM
